A selection: hits, their analogues and other compounds. The true share with any hit is near 2.9%.
Rango dissoc inh: qHTS Assay for Inhibitors of RanGTP induced Rango (Ran-regulated importin-beta cargo) - Importin beta complex dissociation; Snurportin-1 (Homo sapiens) + GTP-binding nuclear protein Ran (Homo sapiens) + Importin …; Biochemical FRET Rango-importin beta, RanGTP-induced dissociation; Potency, µM (top dose mostly 46.1 µM), for the others: top-dose activity change, negative = inhibition; 0.071% of 340,000 active; AID 540253, 2011; note: potency is the fitted concentration of half-maximal effect; % of control where 0% means no effect; nearly all actives have a fitted effect of over 45% in size
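Compounds sat 5 min at room temperature with 0.1 uM Rango biosensor plus 0.25 uM importin beta, then FRET pre-read. RanGTP-RCC1 (0.6 uM Ran, 2mM GTP, 0.2 uM RCC1) added for 45 min, and the CFP/YFP post-read measured blocked complex dissociation.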
TSG101-PTAP inh: qHTS Assay for Iinhibitors of HIV-1 Budding by Blocking the Interaction of PTAP/TSG101; 340,000 tested, under 10 active; Tumor susceptibility gene 101 protein (Homo sapiens), Q99816; Potency, µM (series often up to 115 µM), inactives show at the top dose activity change, negative = inhibition, hits mostly inhibitors; Fluorescence polarization, FITC-PTAP peptide / Tsg101 binding; active = well fitted inhibition curve with a large enough effect in the main read-out, with a control signal flat, not every such curve was filed as active; inconclusive = small, poorly fitted or top-dose-only effect, or effect the other way, or a change in a side signal; inactive = no such curve, though single readings can be large or run the other way; note: potency is the fitted concentration of half-maximal effect; % of control where 0% means no effect
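FP read-out: FITC-PTAP peptide, 50 nM final, binding Tsg101 binding domain, 10 uM final; 20 min, r.t.; 10 mM HEPES pH 7.5, 0.15 M NaCl, 0.01% Tween 20, 3 mM EDTA, 0.1 mM TCEP.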
Rango complex inh: qHTS Assay for Inhibitors of Rango (Ran-regulated importin-beta cargo) - Importin beta complex formation | Importin subunit beta-1 (Homo sapiens), Q14974 | Rango CFP/YFP FRET sensor + importin beta, 45 min | Potency, µM (highest dose often 92.2 µM), for inactives: top-dose inhibition of complex formation | 0.031% of 340,000 active;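 note: potency is the fitted concentration of half-maximal effect; 0% = DMSO wells and 100% = buffer wells lacking importin beta; nearly all actives have a fitted effect of over 15% in size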
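Inhibition scored from the CFP 486 nm/YFP 530 nm FRET ratio 45 min after adding 0.125 microM importin beta to 50 nM Rango biosensor preincubated 5 min with compound (room temperature, PBS with DTT, Tween-20, BSA). No-importin wells as positive control.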
D3 antag: qHTS of D3 Dopamine Receptor Antagonist: qHTS; D(3) dopamine receptor (Homo sapiens), P35462; D3R cells, DiscoveRx beta-arrestin luminescence, antagonist mode; stronger effect = lower value; 2.5% of 360,000 active; AID 652054, 2013; max response, negative = inhibition, %; in the data active = max response below about -50%; inconclusive = no clear call, values can overlap the other calls; note: % is set by controls: 0 for no effect and ±100 for the full control effect
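Cells plated overnight at 1500 cells/well, then exposed to library compounds with dopamine controls for 90 minutes at 37 degrees C. DiscoveRx reagent added for 30–60 minutes at room temperature; luminescence read, quantitative HTS format.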
Mm-Cpn inhibitor: Inhibitors of TCP-1 ring complex (TRiC) of Methanococcus maripaludis (MmCpn): qHTS; Potency, µM (titrated, usually from 76.9 µM), for the others: top-dose activity, negative = inhibition, usual class: inhibitors; AID 504842, 2011; Chaperonin Mm-Cpn (Methanococcus maripaludis); purified Mm-Cpn ATPase, ADP Transcreener TR-FRET; 0.031% of 330,000 active; active = well fitted inhibition curve with a large enough effect; inconclusive = small, poorly fitted or top-dose-only effect; note: potency is the fitted concentration of half-maximal effect; % is set by controls: 0 for no effect and ±100 for the full control effect; nearly all actives have a fitted effect of over 80% in size
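ATP (10 uM final) was added to archaeal chaperonin (25 nM final) after 10 min exposure to test compound at 37°C; after 30 min further incubation, ADP was detected by competitive TR-FRET.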
DRD3 agonist: qHTS of D3 Dopamine Receptor Agonist: qHTS | D3R DiscoveRx beta-arrestin cells, luminescence, 90 min | max activation, % | 0.58% of 410,000 active; in the data active = max activation above about 30%; note: 0% is about no effect
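Agonist mode: compounds and dopamine controls were applied to plated cells for 90 min at 37 degrees C after an overnight attachment at 1500 cells/well. Luminescent read-out followed 30 - 60 minutes at room temperature with DiscoveRx detection reagent.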
* hit, by the source's call; u = inconclusive; x = no result. Unless noted, calls come from the whole dose curve.

Protein sequences, listed by entry. Tags and fused reporters are not part of them.
Importin subunit beta-1 (Homo sapiens), Q14974, UniProt Q14974, whole entry, looked up: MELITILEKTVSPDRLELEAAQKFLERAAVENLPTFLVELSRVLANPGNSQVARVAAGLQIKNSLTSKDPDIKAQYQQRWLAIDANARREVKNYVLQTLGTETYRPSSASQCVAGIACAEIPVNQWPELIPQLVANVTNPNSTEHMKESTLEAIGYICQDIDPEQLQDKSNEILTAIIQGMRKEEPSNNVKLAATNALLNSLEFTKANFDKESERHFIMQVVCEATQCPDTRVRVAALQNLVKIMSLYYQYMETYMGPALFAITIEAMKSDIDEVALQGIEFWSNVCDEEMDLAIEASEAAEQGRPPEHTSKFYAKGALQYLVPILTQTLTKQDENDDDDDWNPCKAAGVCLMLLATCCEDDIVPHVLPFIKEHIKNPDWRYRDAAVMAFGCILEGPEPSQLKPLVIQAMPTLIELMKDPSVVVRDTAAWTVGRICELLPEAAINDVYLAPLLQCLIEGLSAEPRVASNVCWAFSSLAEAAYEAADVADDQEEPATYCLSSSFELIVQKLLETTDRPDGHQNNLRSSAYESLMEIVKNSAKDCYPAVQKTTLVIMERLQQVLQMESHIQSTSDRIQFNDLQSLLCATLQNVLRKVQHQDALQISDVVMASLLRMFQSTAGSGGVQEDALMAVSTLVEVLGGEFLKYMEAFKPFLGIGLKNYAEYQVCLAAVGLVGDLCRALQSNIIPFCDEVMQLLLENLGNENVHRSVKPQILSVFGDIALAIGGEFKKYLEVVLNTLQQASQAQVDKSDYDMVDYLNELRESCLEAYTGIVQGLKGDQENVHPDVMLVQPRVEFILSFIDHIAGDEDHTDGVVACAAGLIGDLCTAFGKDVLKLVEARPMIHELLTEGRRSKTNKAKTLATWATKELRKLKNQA
D(3) dopamine receptor (Homo sapiens), P35462, UniProt P35462, whole entry, looked up: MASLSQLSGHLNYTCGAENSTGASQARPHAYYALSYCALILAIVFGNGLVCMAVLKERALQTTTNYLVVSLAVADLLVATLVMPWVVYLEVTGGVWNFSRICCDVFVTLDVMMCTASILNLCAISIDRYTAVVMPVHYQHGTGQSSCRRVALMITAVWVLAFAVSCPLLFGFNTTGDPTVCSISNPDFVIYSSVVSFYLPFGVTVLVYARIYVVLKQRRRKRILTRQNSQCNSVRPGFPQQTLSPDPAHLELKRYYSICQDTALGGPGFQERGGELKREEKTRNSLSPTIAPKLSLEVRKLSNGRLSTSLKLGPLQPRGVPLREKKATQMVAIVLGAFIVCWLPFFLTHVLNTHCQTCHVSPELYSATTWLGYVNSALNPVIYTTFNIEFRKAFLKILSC

molecule | Rango dissoc inh | TSG101-PTAP inh | Rango complex inh | D3 antag | Mm-Cpn inhibitor | DRD3 agonist
COc1ccc(S(=O)(=O)N2CCC(C(=O)NCc3ccncc3)CC2)cc1OC | 0.4% | -4.4% | -5.9% | 4.0 | 1.7% | 4.9
CCOc1cnn(-c2cc(Oc3ccc(C)cc3)ncn2)c(=O)c1Cl | 6.0% | -10.5% | 0.4% | -24.3 | 0.8% | 3.6
Cc1ccccc1Oc1cc(-n2ncc(Cl)c(Cl)c2=O)ncn1 | -8.2% | -3.3% | u | -97.1* | -8.0% | -54.4
CCOc1ccc(Nc2nc(N)nc(CN(C)C3CCCCC3)n2)cc1 | 1.5% | 0.7% | 58µM* | 11.5 | -1.6% | -1.8
COc1ccc(Nc2nc(N)nc(CN(C)C3CCCCC3)n2)cc1 | 10.5% | -1.0% | -0.6% | -15.2 | -0.6% | 11.0
Cc1c(C(=O)N(C)C)sc2c1c(=O)n(-c1ccc(Cl)cc1)c(=O)n2CC(=O)C(C)(C)C | x | x | x | x | x | 8.5
COc1cc(OC)c(OC)cc1CN1CCCC(C(=O)c2ccccc2SC)C1 (stereo not given) | 1.5% | -0.1% | -1.9% | -60.5* | 1.1% | -7.0
Cc1c(CN2CCCCC2C)c(=O)n(-c2ccccc2)n1C (stereo not given) | 1.9% | x | 2.4% | -58.2* | -1.7% | -12.9
COc1ccc(F)cc1C(=O)C1CCCN(C(=O)CSc2ccccn2)C1 (stereo not given) | 15.9% | -1.1% | 0.8% | 10.9 | 0.5% | 1.3
COc1ccc(F)cc1C(=O)C1CCCN(Cc2ccc(Oc3ncccn3)cc2)C1 (stereo not given) | 2.7% | -7.2% | -3.2% | -72.8* | -0.7% | -12.1
COc1ccc(F)cc1C(=O)C1CCCN(Cc2cccn2-c2cccnc2)C1 (stereo not given) | -20.2% | -1.9% | 1.5% | -95.5* | 0.7% | -20.7
COc1cc(CN2CCCC(C(=O)c3ccccc3SC)C2)cc(OC)c1 (stereo not given) | 2.3% | -10.8% | -2.8% | -14.0 | -2.4% | -9.3
Cc1ccc(CNC(=O)c2ccc(CSCc3ccc(C)cc3)o2)cc1 | x | x | x | x | x | 6.7
CCOC(=O)c1ccccc1NC(=O)Cn1c(=O)n(Cc2nc(-c3ccccc3)no2)c(=O)c2ccccc21 | x | x | x | x | x | -12.5
COc1ccc(F)cc1C(=O)C1CCCN(Cc2c(C)n(C)n(-c3ccccc3)c2=O)C1 (stereo not given) | 29.5% | -2.6% | -4.8% | -55.3* | 1.0% | -19.8
COc1ccc(F)cc1C(=O)C1CCCN(Cc2ccc3c(c2)OCCO3)C1 (stereo not given) | 25.0% | -2.0% | 0.8% | -105.3* | 0.1% | -3.5
COc1cccc(CN2CCCC(C(=O)c3ccc4c(c3)OCO4)C2)c1O (stereo not given) | 3.4% | -1.6% | -0.6% | u | 3.4% | -23.3
COc1ccc(C(=O)C2CCCN(Cc3ccc4c(c3)OCCO4)C2)cc1F (stereo not given) | 11.1% | -4.4% | -2.7% | -25.5 | -2.5% | -29.3
COc1ccccc1C(=O)C1CCCN(Cc2ccc3c(c2)OCCO3)C1 (stereo not given) | 3.0% | -0.2% | -1.3% | -50.2* | -5.1% | -38.3
O=C(O)[C@H](O)[C@@H](O)[C@H](O)[C@H](O)CO | x | x | x | x | x | 1.3
CC1(C)O[C@@H]2C[C@H]3[C@@H]4CCC5=CC(=O)C=C[C@]5(C)[C@H]4[C@@H](O)C[C@]3(C)[C@]2(C(=O)CO)O1 | x | x | x | x | x | -8.7
CCc1nnc(NC(=O)c2ccc3c(c2)C(=O)N(C(C)(C)C)C3=O)s1 | 10.6% | -2.6% | -3.7% | -24.5 | -0.4% | 38.0*
CCc1nnc(NC(=O)c2ccc3ncsc3c2)s1 | 17.5% | -7.5% | -0.2% | -4.3 | -11.2% | 3.5

By substructure: the compounds so far with a tert-butyl group.
molecule | Rango dissoc inh | TSG101-PTAP inh | Rango complex inh | D3 antag | Mm-Cpn inhibitor | DRD3 agonist
Cc1c(C(=O)N(C)C)sc2c1c(=O)n(-c1ccc(Cl)cc1)c(=O)n2CC(=O)C(C)(C)C | x | x | x | x | x | 8.5
CCc1nnc(NC(=O)c2ccc3c(c2)C(=O)N(C(C)(C)C)C3=O)s1 | 10.6% | -2.6% | -3.7% | -24.5 | -0.4% | 38.0*

Complete entries, quoted from the list:
COc1cc(OC)c(OC)cc1CN1CCCC(C(=O)c2ccccc2SC)C1 (stereo not given) reads Rango dissoc inh: 1.5%; TSG101-PTAP inh: -0.1%; Rango complex inh: -1.9%; D3 antag: -60.5*; Mm-Cpn inhibitor: 1.1%; DRD3 agonist: -7.0
Cc1ccc(CNC(=O)c2ccc(CSCc3ccc(C)cc3)o2)cc1 reads Rango dissoc inh: x; TSG101-PTAP inh: x; Rango complex inh: x; D3 antag: x; Mm-Cpn inhibitor: x; DRD3 agonist: 6.7
